According to PMC3794980, “Identification of Conserved and HLA Promiscuous DENV3 T-Cell Epitopes” (PLoS Neglected Tropical Diseases, 2013):
Like-named read-outs stand apart in the source and are kept apart here.

Sequences of proteins named here, by UniProt entry; tags and fusion partners are left off. Residues count along the entry.
UniProt Q30154, 30-266: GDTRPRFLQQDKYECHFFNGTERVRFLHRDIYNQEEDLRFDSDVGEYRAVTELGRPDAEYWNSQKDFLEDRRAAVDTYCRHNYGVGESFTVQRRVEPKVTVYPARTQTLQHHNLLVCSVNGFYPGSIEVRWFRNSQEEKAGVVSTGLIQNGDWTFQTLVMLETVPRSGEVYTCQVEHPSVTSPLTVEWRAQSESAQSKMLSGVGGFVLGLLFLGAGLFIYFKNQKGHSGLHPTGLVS

Key:
Experiment in all cases: biochemical
Assay type in all cases: binding
[1] = molecular target: DRB5*0101 (Homo sapiens, UniProt P01903+Q30154)
[2] = molecular target: DRB1*0901 (Homo sapiens, UniProt P01903+P01911, A100R/A103E/D57H/D86V/F55Y/F60I/F76Y/I96F/K127E/L162R/M171V/P40D/Q125H/Q99R/R33Q/R42F/S133A/S66N/T210M/V115G/W38K/Y107V/Y59G/Y89S)
[3] = molecular target: DRB1*1302 (Homo sapiens, UniProt P01903+P01911, A100E/A169T/K41T/L162R/M171V/P40S/Q125H/Q178H/Q39Y/Q99D/R42S/S66N/T262R/V115G/W38E/Y61H)
[4] = molecular target: DRB1*0701 (Homo sapiens, UniProt P01903+P01911, A100R/A102G/A103Q/D57E/D86V/E43K/F76Y/K127E/L162R/M171V/P40G/Q125H/Q99D/R33Q/R42Y/R54Q/S133A/S66F/T210M/V115G/Y107V/Y59L/Y89S)
[5] = molecular target: DRB1*0301 (Homo sapiens, UniProt P01903+P01911, A100K/A102G/A103R/A169T/F55Y/I96L/K41T/L162R/M171V/P40S/Q125H/Q178H/Q39Y/R42S/S66N/T106N/T262R/W38E/Y61H)
[6] = molecular target: DRB1*0101 (Homo sapiens, UniProt P01903+P01911, A100R/D57E/F55L/F60I/F76Y/I96L/L162R/M171V/P40L/Q125E/R42F/V115G/Y59C)
[7] = molecular target: DRB1*0404 (Homo sapiens, UniProt P01903+P01911, A100R/A169T/F76Y/I96L/K127E/L162R/M171V/N62H/P40V/Q125Y/R42H/S133A/S149N/S66Y/V209L/W38E)
[8] = molecular target: DRB1*0802 (Homo sapiens, UniProt P01903+P01911, A100R/A103L/A169T/F76Y/H45Y/I96F/K41T/L162R/M171V/P40S/Q125H/Q178H/Q39Y/Q99D/R218S/R42G/S66Y/V115G/W38E)
[9] = molecular target: DRB1*1501 (Homo sapiens, UniProt P01903+P01911)
[10] = molecular target: DRB1*1101 (Homo sapiens, UniProt P01903+P01911, A100R/A169T/A87E/I96F/K41T/L162R/M171V/P40S/Q125H/Q178H/Q39Y/Q99D/R42S/S66Y/T262R/V115G/W38E)
[11] = molecular target: DRB1*0405 (Homo sapiens, UniProt P01903+P01911, A100R/A169T/D86S/F76Y/I96L/K127E/L162R/M171V/N62H/P40V/Q125Y/R42H/S133A/S149N/S66Y/V115G/V209L/W38E)
[12] = molecular target: DRB1*0401 (Homo sapiens, UniProt P01903+P01911, A100K/A169T/F76Y/I96L/K127E/L162R/M171V/N62H/P40V/Q125Y/R42H/S133A/S149N/S66Y/V115G/V209L/W38E)
[13] = molecular target: DRB4*0101 (Homo sapiens, UniProt P01903+P13762, G164S); conditions: read-out: Binding Affinity (nM) DRB4*0101
[14] = read-out: Binding Affinity (nM) DRB5*0101
[15] = competitive inhibition of radiolabeled standard peptide, DRB1*0901, read-out: Binding Affinity (nM) DRB1*0901
[16] = competitive inhibition of radiolabeled standard peptide, DRB1*1302, read-out: Binding Affinity (nM) DRB1*1302
[17] = read-out: Binding Affinity (nM) DRB1*0701
[18] = read-out: Binding Affinity (nM) DRB1*0101
[19] = read-out: Binding Affinity (nM) DRB1*0405

Structure (SMILES)	IC50 [1, 14] [nM]	IC50 [2] [nM]	IC50 [3] [nM]	IC50 [4] [nM]	IC50 [5] [µM]	IC50 [6] [nM]	IC50 [7] [nM]	IC50 [8] [nM]	IC50 [9] [µM]	IC50 [10] [nM]	IC50 [11] [nM]	IC50 [2, 15] [nM]	IC50 [3, 16] [nM]	IC50 [12] [nM]	IC50 [13] [nM]	other results
CC(C)C[C@H](NC(=O)[C@@H](NC(=O)CNC(=O)[C@H](CC(N)=O)NC(=O)[C@H](CO)NC(=O)[C@H](Cc1c[nH]c2ccccc12)NC(=O)[C@H](CC(C)C)NC(=O)[C@@H](NC(=O)[C@H](Cc1c[nH]cn1)NC(=O)[C@H](CO)NC(=O)[C@H](CCCCN)NC(=O)[C@@H]1CCCN1C(=O)[C@@H](N)Cc1c[nH]c2ccccc12)[C@@H](C)O)C(C)C)C(=O)N[C@@H](CCC(=O)O)C(=O)N[C@@H](CO)C(=O)O [NS1 225-239]	> 20000															
CC[C@H](C)[C@H](NC(=O)[C@H](C)NC(=O)[C@H](CCC(=O)O)NC(=O)[C@H](CCCNC(=N)N)NC(=O)[C@@H](N)C(C)C)C(=O)N[C@@H](CCCCN)C(=O)N[C@@H](CCCNC(=N)N)C(=O)N[C@@H](CCCNC(=N)N)C(=O)N[C@@H](CC(C)C)C(=O)N[C@@H](CCCNC(=N)N)C(=O)N[C@H](C(=O)N[C@@H](CC(C)C)C(=O)N[C@H](C(=O)N[C@@H](CC(C)C)C(=O)N[C@@H](C)C(=O)O)[C@@H](C)CC)[C@@H](C)O [NS3 209-223]		7310	3280	1860	12.8	4210	2540	12400								IC50 [1]: 1640 nM
CC[C@H](C)[C@H](NC(=O)[C@H](Cc1c[nH]c2ccccc12)NC(=O)[C@H](CCC(=O)O)NC(=O)[C@H](CC(N)=O)NC(=O)CNC(=O)[C@H](CO)NC(=O)[C@H](CC(N)=O)NC(=O)[C@@H](N)Cc1c[nH]c2ccccc12)C(=O)N[C@H](C(=O)N[C@@H](CC(=O)O)C(=O)N[C@@H](Cc1ccccc1)C(=O)N[C@@H](C)C(=O)NCC(=O)N[C@@H](CCCCN)C(=O)N[C@H](C(=O)O)[C@@H](C)O)[C@@H](C)O [NS3 345-359]	> 20000	10900		8130	2.62	1760			5.32	10100	5340					
CC[C@H](C)[C@H](NC(=O)[C@H](CC(=O)O)NC(=O)[C@@H](N)[C@@H](C)O)C(=O)N[C@@H](CO)C(=O)N[C@@H](CCC(=O)O)C(=O)N[C@@H](CCSC)C(=O)NCC(=O)N[C@@H](C)C(=O)N[C@@H](CC(N)=O)C(=O)N[C@@H](Cc1ccccc1)C(=O)N[C@@H](CCCCN)C(=O)N[C@@H](C)C(=O)N[C@@H](CC(=O)O)C(=O)N[C@@H](CCCNC(=N)N)C(=O)N[C@H](C(=O)O)C(C)C [NS3 409-423]				19000	0.47	7720	12100	5100	10.8		4660	18000	4060	1820	> 20000	IC50 ([10]; read-out: Binding Affinity (nM) DRB1*1101): > 20000 nM
CC[C@H](C)[C@H](NC(=O)[C@@H](NC(=O)[C@H](CCCNC(=N)N)NC(=O)[C@H](CC(=O)O)NC(=O)[C@H](C)NC(=O)[C@H](CCCCN)NC(=O)[C@H](Cc1ccccc1)NC(=O)[C@H](CC(N)=O)NC(=O)[C@H](C)NC(=O)CNC(=O)[C@H](CCSC)NC(=O)[C@@H](N)CCC(=O)O)C(C)C)C(=O)N[C@@H](CC(=O)O)C(=O)N1CCC[C@H]1C(=O)N[C@@H](CCCNC(=N)N)C(=O)O [NS3 413-427]			3230		0.261		3110	11200	9.35	7130	1760			40	> 20000	IC50 ([2]; read-out: Binding Affinity (nM) DRB1*0901): > 20000 nM; IC50 [4, 17]: > 20000 nM; IC50 [6, 18]: > 20000 nM
C[C@@H](O)[C@H](NC(=O)[C@H](CO)NC(=O)[C@H](CO)NC(=O)[C@H](Cc1c[nH]cn1)NC(=O)[C@H](CCC(=O)O)NC(=O)[C@H](CCC(=O)O)NC(=O)[C@@H](N)CCCCN)C(=O)N[C@@H](Cc1c[nH]c2ccccc12)C(=O)N[C@@H](Cc1c[nH]cn1)C(=O)N[C@@H](Cc1ccc(O)cc1)C(=O)N[C@@H](CC(=O)O)C(=O)N[C@@H](CC(=O)O)C(=O)N[C@@H](CCC(=O)O)C(=O)N[C@@H](CC(N)=O)C(=O)N1CCC[C@H]1C(=O)N[C@@H](Cc1ccc(O)cc1)C(=O)N[C@@H](CCCCN)C(=O)O [NS5 284-300]	> 20000															
C[C@H](NC(=O)[C@H](Cc1c[nH]c2ccccc12)NC(=O)[C@@H](NC(=O)[C@H](CCCCN)NC(=O)[C@H](Cc1ccc(O)cc1)NC(=O)[C@@H]1CCCN1C(=O)[C@H](CC(N)=O)NC(=O)[C@H](CCC(=O)O)NC(=O)[C@H](CC(=O)O)NC(=O)[C@H](CC(=O)O)NC(=O)[C@H](Cc1ccc(O)cc1)NC(=O)[C@H](Cc1c[nH]cn1)NC(=O)[C@H](Cc1c[nH]c2ccccc12)NC(=O)[C@@H](N)[C@@H](C)O)[C@@H](C)O)C(=O)N[C@@H](Cc1ccc(O)cc1)C(=O)N[C@@H](Cc1c[nH]cn1)C(=O)NCC(=O)O [NS5 290-306]	> 20000	2990	2900	2700	0.027	299	16200	1390	4.91	3900						IC50 [11, 19]: > 20000 nM
CC(C)C[C@H](NC(=O)CNC(=O)[C@H](CCC(=O)O)NC(=O)CNC(=O)[C@H](CCC(=O)O)NC(=O)[C@@H](NC(=O)CNC(=O)[C@H](CO)NC(=O)[C@H](Cc1ccc(O)cc1)NC(=O)[C@H](CO)NC(=O)[C@H](CC(N)=O)NC(=O)[C@H](CCC(=O)O)NC(=O)[C@H](CCCNC(=N)N)NC(=O)[C@H](CO)NC(=O)[C@H](Cc1ccccc1)NC(=O)[C@H](Cc1c[nH]c2ccccc12)NC(=O)[C@@H](N)Cc1c[nH]cn1)C(C)C)C(=O)O [NS5 495-511]				190	5.78	121	1050	5400	5.56	11100	1750	448	> 20000	15	> 20000	
CC[C@H](C)[C@H](NC(=O)[C@H](CCCCN)NC(=O)[C@H](CCCCN)NC(=O)[C@H](CCC(=O)O)NC(=O)[C@H](CC(C)C)NC(=O)[C@@H]1CCCN1C(=O)[C@H](Cc1c[nH]cn1)NC(=O)[C@@H]1CCCN1C(=O)[C@H](CC(N)=O)NC(=O)[C@H](CCC(=O)O)NC(=O)[C@H](CC(C)C)NC(=O)[C@H](CC(=O)O)NC(=O)[C@H](C)NC(=O)[C@@H](N)CCCCN)C(=O)N[C@H](C(=O)N[C@@H](CCC(N)=O)C(=O)N[C@@H](Cc1c[nH]c2ccccc12)C(=O)O)[C@@H](C)O [NS5 630-646]					3				1.07	2590		> 20000	> 20000		> 20000	IC50 ([12]; read-out: Binding Affinity (nM) DRB1*0401): > 20000 nM; IC50 [4, 17]: > 20000 nM; IC50 [11, 19]: > 20000 nM; IC50 [6, 18]: > 20000 nM; IC50 ([7]; read-out: Binding Affinity (nM) DRB1*0404): > 20000 nM; IC50 ([8]; read-out: Binding Affinity (nM) DRB1*0802): > 20000 nM
